# High-throughput results: PubChem BioAssay, ICCB-Longwood Screening Facility, Harvard Medical School
# An excerpt weighted towards active compounds, which were near 0.46% of everything screened.
# HCMV NEC inh – inhibitors of HCMV UL50-UL53 interaction, biochemical, HTRF. HCMV UL50-UL53 nuclear egress complex (human cytomegalovirus). normalized percent inhibition. inhibition, % (test concentration not listed). 0.15% of 190,000 active; in the data active means inhibition above about 27%, passing the limit was not always enough
# GIV-Gai inh – inhibitors of GIV peptide binding to Galpha-i3, primary screen, biochemical, fluorescence polarization, FITC-GIV GBA peptide, rat Galphai3 | 90 min; hits give low values; scaled: aluminum fluoride 0%, vehicle 100% | percent of control (FP), % (concentration not given with the values) | 210,000 compounds, 0.42% hits | AID 1224905, 2016;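 active = replicate mean at 85% of control or lower, very high polarization wells dropped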;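 also: wells of about 15 µL received 100 nL stock; the first replicate is given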
# Hits are given with their value; i = inactive; nt = not tested or not shown.
SMILES,HCMV NEC inh,GIV-Gai inh
C=CCN1C(=O)C2Cc3c([nH]c4ccccc34)C(c3ccc(O)cc3)N2C1=S (stereo not given),i,i
C=CCNc1nc2c(C)cccn2c(=O)c1/C=C1\SC(=S)NC1=O,nt,-42
Cc1cccn2c(=O)c(/C=C3\SC(=S)N(Cc4ccccc4)C3=O)c(NCc3ccco3)nc12,nt,i
O=S(=O)(NC1CCCC1)c1ccc(-c2nnc(C3CCC3)o2)s1,i,i
O=C(Nc1ccc(N2CCCN(c3ccc(Cl)nn3)CC2)c(C(=O)O)c1)c1ccc(F)cc1,nt,i
COc1ccccc1NC(=O)Nc1ccnn1C1CCCCC1,i,nt
COc1ccccc1NC(=O)Nc1ccnn1Cc1ccccc1,85,nt
N#CCC1(C#N)CCCc2ccccc21 (stereo not given),i,i
CCCN1C(=O)/C(=C/c2cc(Br)c(O)c(OCC)c2)NC1=S,i,-83
CCCN1C(=O)/C(=C/c2ccc(CC)cc2)NC1=S,nt,i
COc1cc2c(cc1OC)-c1nnc(C)n1C1(CCCC1)C2,i,i
CCCN1C(=O)/C(=C/c2ccc(-c3cccc(C(F)(F)F)c3)o2)NC1=S,i,i
CCCN1C(=O)/C(=C/c2ccc(-c3ccc(Br)cc3)o2)NC1=S,i,-83
Cc1cccn2c(=O)c(/C=C3\SC(=S)N(CCCC(=O)O)C3=O)c(NCCc3ccccc3)nc12,nt,i
COCCCN1C(=O)/C(=C\c2c(N3CC(C)OC(C)C3)nc3c(C)cccn3c2=O)SC1=S (stereo not given),nt,i
Cc1cccn2c(=O)c(/C=C3\SC(=S)N(C)C3=O)c(N3CCCC3)nc12,nt,-36
Cc1cccn2c(=O)c(/C=C3\SC(=S)N(CCCC(=O)O)C3=O)c(N3CCCCC3)nc12,nt,40
CCc1ccc(NC(=O)N2CCSc3ccccc32)cc1,i,i
N#Cc1c(N)nc(SCC(N)=O)c(C#N)c1-c1ccc(Br)cc1,66,i
COc1cc(-c2c(C#N)c(N)nc(SCC(N)=O)c2C#N)cc(OC)c1OC,nt,i
CCOC(=O)CC(=O)CSc1nc(N)c(C#N)c(-c2cccs2)c1C#N,nt,i
CCOC(=O)CSc1nc(N)c(C#N)c(-c2ccc(OCC)cc2)c1C#N,44,i
N#Cc1c(N)nc(SCC(=O)c2ccc3ccccc3c2)c(C#N)c1-c1ccccc1,21,i
CC(C)(C)C(=O)CSc1nc(N)c(C#N)c(-c2cccs2)c1C#N,60,nt
COC(=O)CSc1nc(N)c(C#N)c(-c2ccccc2)c1C#N,i,i
SMILES,HCMV NEC inh,GIV-Gai inh
CCOc1ccc(-c2c(C#N)c(N)nc(SCC(=O)c3ccccc3)c2C#N)cc1,i,i
S=C(NCCc1ccccc1)NC1CC1,i,i
CN(C(=O)COC(=O)c1cc(F)c(F)cc1Cl)c1ccccc1,i,nt
O=C(O)C(Cc1ccccc1)N1C(=O)/C(=C/C=C/c2ccco2)SC1=S (stereo not given),70,i
O=C1S/C(=C\C=C\c2ccco2)C(=O)N1c1ccccc1,i,i
Cc1ccc(NS(=O)(=O)c2c(C)nc3sc(C)cn3c2=O)c(C)c1,nt,i
O=c1oc2ccccc2cc1-c1nc(-c2cccs2)cs1,nt,11
O=c1oc2cc(O)ccc2cc1-c1nnc(NC2CCCCC2)s1,nt,-31
Cc1ccc(-c2csc(-c3cc4ccccc4oc3=O)n2)cc1C,nt,i
O=c1oc2ccc3ccccc3c2cc1-c1nc(-c2cccs2)cs1,nt,i
O=c1oc2cc(O)ccc2cc1-c1nc(-c2ccc3ccccc3c2)cs1,nt,-29
COc1cccc2cc(-c3nnc(NC4CCCCC4)s3)c(=O)oc12,nt,i
Cc1ccc(/C=C/C(=O)NCCc2c[nH]c3ccccc23)o1,i,nt
O=C1c2ccccc2C(=O)C1c1cc(=O)[nH]c2ccccc12,i,i
CCc1ccc(C(=O)OCC(N)=O)cc1,i,nt
CC1Cc2ccccc2N1S(=O)(=O)c1ccc2[nH]c(=O)[nH]c2c1 (stereo not given),i,nt
Cc1[nH]c(=O)[nH]c(=O)c1S(=O)(=O)N1c2ccccc2CC1C (stereo not given),nt,-73
CCn1c(-c2cccs2)nc2ccccc21,i,nt
CNc1nc(SCc2c(C)noc2C)nc2ccccc12,51,nt
Cc1noc(C)c1CSc1nc2ccccc2c(=O)n1C(C)C,i,nt
Cc1cc(C(=O)O)on1,i,i
CCNc1nc2ccccn2c(=O)c1/C=C1\SC(=S)N(Cc2ccco2)C1=O,i,-75
CCN1C(=O)/C(=C/c2c(NC(C)C)nc3ccccn3c2=O)SC1=S,i,i
O=C1/C(=C/c2c(NCc3ccco3)nc3ccccn3c2=O)SC(=S)N1C1CCCCC1,nt,i
C=CCN1C(=O)/C(=C/c2c(NCC)nc3ccccn3c2=O)SC1=S,nt,-33
SMILES,HCMV NEC inh,GIV-Gai inh
C=CCN1C(=O)/C(=C/c2c(NCc3ccco3)nc3ccccn3c2=O)SC1=S,i,-83
COc1ccc(CCN2C(=O)/C(=C/c3c(NCc4ccccc4)nc4ccccn4c3=O)SC2=S)cc1OC,nt,i
Cc1ccc(N2C(=O)NC(=O)/C(=C/c3cc(Br)c(O)cc3O)C2=O)cc1,i,-71
Cc1ccc(N2C(=O)NC(=O)/C(=C\c3ccc(O)c(Br)c3)C2=O)cc1,i,i
CCOC(=O)COc1ccccc1/C=N/O,i,i
CCCn1c(-c2ccncc2)n[nH]c1=S,i,i
N#Cc1cccc(OCC(=O)C23CC4CC(CC(C4)C2)C3)c1,i,nt
COc1ccc(/C(O)=C(/C#N)c2nc3ccccc3s2)cc1,i,nt
COc1ccc(N2CCN(/C=C(\C#N)c3nc4ccccc4s3)CC2)cc1,i,-61
NC(=O)NNC1=Nc2cccc3cccc1c23,i,nt
C=C(C)Cn1c(SCCC(C)C)nc2c1c(=O)[nH]c(=O)n2C,i,i
O=C1NC(=O)C(=Cc2cc(Cl)c(OC(=O)c3ccccc3)c(Cl)c2)C(=O)N1,i,i
COc1cc(C=C2C(=O)NC(=O)NC2=O)cc(Cl)c1OCC(=O)O,72,i
COc1cc(C=C2C(=O)NC(=O)NC2=O)cc(Br)c1OCC(C)C,87,i
COc1ccc(C(=O)Oc2c(Cl)cc(C=C3C(=O)NC(=O)NC3=O)cc2OC)cc1,49,i
COc1cc(C=C2C(=O)NC(=O)NC2=O)cc(Cl)c1OCCOc1ccccc1C,61,i
COc1cc(C=C2C(=O)NC(=S)NC2=O)cc(Cl)c1OCCOc1ccccc1C,i,i
COc1cc(C=C2C(=O)NC(=S)NC2=O)ccc1OCC(=O)O,nt,i
COc1cc(C=C2C(=O)NC(=O)NC2=O)ccc1OCC(C)C,i,i
COc1ccccc1NC(=O)C(C#N)Cc1cc2cc(C)cc(C)c2[nH]c1=O (stereo not given),i,i
COCCNC(=O)c1ccc(Cn2c(SCC(=O)NC(C)C)nc3ccccc3c2=O)cc1,nt,i
COc1ccccc1OCCOc1c(Cl)cc(C=C2C(=O)NC(=O)NC2=O)cc1OC,63,i
COc1ccccc1OCCOc1c(Br)cc(C=C2C(=O)NC(=O)NC2=O)cc1OC,i,i
COc1cc(C=C2C(=O)NC(=O)NC2=O)cc(Br)c1OCc1ccccc1Cl,i,i
COc1cc(C=C2C(=O)NC(=O)NC2=O)cc(Cl)c1OCc1ccc(Cl)cc1,72,i
COc1cc(C=C2C(=O)NC(=S)NC2=O)cc(Cl)c1OCCOc1ccccc1,i,i
COc1cc(C=C2C(=O)NC(=O)NC2=O)cc(Cl)c1OCCOc1cccc(C)c1,44,i
CCC1CN(C(=O)N2CCC(C(=O)N3CCN(c4cccc(C)c4C)CC3)CC2)c2ccccc2O1 (stereo not given),i,i
